## Antibody variant affinities, Ab-91 heavy chain, assay 2

Values reported by Engelhart et al. 2022, doi:10.1038/s41597-022-01779-4 (FLAb copy).

All variants were tested on one target, the spike HR2 peptide PDVDLGDISGINAS (SARS-CoV-2).

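The library (AAYL51) carries one to three amino acid substitutions per variant, with no insertions or deletions. The scFvs were displayed on barcoded MATa yeast, the peptide on MATalpha yeast. Binding brings cells together so that they mate, and sequencing counts the barcode pairs among the diploids. A regression on co-assayed BCL2-family reference pairs converts the normalised counts of each replicate to an apparent Kd. Each pool was mated in three replicate cultures.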

Each scFv is VL, three GGGGS repeats, VH, as in the parent Ab-91, and differs from it in the CDRs of the heavy chain only.
VL: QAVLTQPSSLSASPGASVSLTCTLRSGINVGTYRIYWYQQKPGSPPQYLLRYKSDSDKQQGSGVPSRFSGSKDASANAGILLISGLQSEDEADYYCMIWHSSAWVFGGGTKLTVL
VH: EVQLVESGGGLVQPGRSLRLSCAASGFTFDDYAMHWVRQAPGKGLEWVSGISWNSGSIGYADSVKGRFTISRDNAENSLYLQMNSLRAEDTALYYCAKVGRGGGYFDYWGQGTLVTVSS

Positions count from residue 1 of the parent VH; D30L puts L in place of D.
This list gathers variants with a substitution at R101 (VH, numbered from residue 1).
Kd is apparent (estimated from mating counts) and averaged on the log scale over replicates with a signal. Smaller is tighter.
"no signal" marks a missing value. The strain was present, yet no cells mated with the target were sequenced in any replicate, which points to weak or no binding.
Empty control strains, which show no peptide, gave a signal in 21% of pairings with library AAYL51; the median was 34 µM and 95% of these signals were weaker than 1.8 µM. No background was subtracted.

With D30L+R101N+F106T the result was 170 nM (2 of 3 replicates). The variant R101E+G104W+D107Q gave no signal (0 of 3 replicates). The variant T28R+K65N+R101Q gave 590 nM (2 of 3 replicates). For S52F+R101F, the assay gave no signal (0 of 3 replicates). The variant G50P+S57E+R101G showed 6.7 µM (2 of 3 replicates). The variant Y60A+K65P+R101K showed no signal (0 of 3 replicates). The variant V99I+R101P+D107S gave 860 nM (1 of 3 replicates). With N54Q+R101Y+D107Y the result was 11 µM (2 of 3 replicates).

With H35V+I58F+R101H the result was 19 µM (1 of 3 replicates). The variant I58K+R101W+Y108V gave 300 nM (3 of 3 replicates). With H35N+N54R+R101H the result was no signal (0 of 3 replicates). With T28S+Y32K+R101G the result was 160 µM (1 of 3 replicates). With S52A+R101H+G102K the result was no signal (0 of 3 replicates). The variant Y32R+I51W+R101V gave 110 µM (1 of 3 replicates). For D62I+K65W+R101E, the assay gave no signal (0 of 3 replicates). The variant A33M+R101S+Y105Q showed 49 µM (2 of 3 replicates).

The variant F29P+S55E+R101D showed no signal (0 of 3 replicates). The variant I51C+R101Q+G104Y showed no signal (0 of 3 replicates). The variant S57V+V64E+R101Y showed 26 µM (1 of 3 replicates). With G50S+R101I+D107H the result was no signal (0 of 3 replicates). The variant R101F+Y105T+Y108N gave 64 nM (3 of 3 replicates). The variant I58L+R101F+Y105E showed 16 µM (2 of 3 replicates). With T28S+Y60T+R101Y the result was 1.6 µM (3 of 3 replicates). The variant D31G+G56S+R101N showed 13 µM (3 of 3 replicates).

The variant R101I showed no signal (0 of 3 replicates). The variant G56V+R101W+G103W showed 15 µM (1 of 3 replicates). For F27D+G50Q+R101L, the assay gave 69 µM (3 of 3 replicates). The variant Y60V+D62C+R101L gave 22 µM (1 of 3 replicates). The variant D30W+V64I+R101Q showed 2.5 µM (3 of 3 replicates). The variant W53N+R101G+D107V showed no signal (0 of 3 replicates). The variant S57V+R101P gave 1.3 mM (1 of 3 replicates). The variant S57C+R101W+Y105D showed 100 µM (2 of 3 replicates).

For S57N+R101G+G104A, the assay gave 36 µM (1 of 3 replicates). For F29L+R101K, the assay gave no signal (0 of 3 replicates). For S57R+R101G+Y108N, the assay gave 380 µM (1 of 3 replicates).

Repeated from above, the 3 best binders with a signal in all replicates:

| changes | Kd | seen in |
|---|---|---|
| R101F+Y105T+Y108N | 64 nM | 3 of 3 |
| I58K+R101W+Y108V | 300 nM | 3 of 3 |
| T28S+Y60T+R101Y | 1.6 µM | 3 of 3 |